## Yeast mating assay 2: variants of the scFv Ab-95

From the AlphaSeq antibody data of Engelhart et al. 2022 (doi:10.1038/s41597-022-01779-4), copy in the FLAb collection.

Binding partner: SARS-CoV-2 spike HR2 peptide, sequence PDVDLGDISGINAS.

Parent: Ab-95, a human scFv built as VH, three GGGGS repeats, VL. Only the CDRs of the light chain vary.
VH: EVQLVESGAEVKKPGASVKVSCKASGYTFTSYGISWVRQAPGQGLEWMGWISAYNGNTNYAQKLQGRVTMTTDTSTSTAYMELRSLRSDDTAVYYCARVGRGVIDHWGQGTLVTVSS
VL: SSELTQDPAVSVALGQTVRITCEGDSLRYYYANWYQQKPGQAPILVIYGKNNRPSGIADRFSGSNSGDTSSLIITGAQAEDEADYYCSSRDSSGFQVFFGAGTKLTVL

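The starting antibody came from a phage panning campaign against this peptide. In library AAYL52, one, two or three CDR residues were substituted; doubles and triples were drawn at random. The assay is AlphaSeq: two haploid yeast populations carry antibody and antigen on their surface. After mating in shaken culture at 30 °C for 16 h, diploids were selected and their barcode pairs sequenced. Read counts were normalised to the haploid input and turned into Kd by a linear fit to BCL2-family pairs of known affinity, for each replicate. There are three technical replicates.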

The parent's light chain CDRs are EGDSLRYYYAN, GKNNRPS, SSRDSSGFQVF; each variant's own CDRs replace them letter for letter.
Values are log10 of the apparent Kd in nM; lower means stronger binding.
"nd" marks a missing value. The strain was present, yet no cells mated with the target were sequenced in that replicate, which points to weak or no binding.
In this assay the parent's reference entry averaged 2.31; its copy inside this library read 2.25.
Empty control strains, which show no peptide, gave a signal in 28% of pairings with library AAYL52; the median was 3.91 and 95% of these signals were weaker than 2.90. No background was subtracted. For each scFv, signals with the empty controls are counted beside the result, with their mean in brackets.

| CDR-L1 | CDR-L2 | CDR-L3 | log10 Kd (nM) by replicate | signal with controls |
|---|---|---|---|---|
| EGDSLRYYYAN | GKNNRPS | SSRDSSQFQVP | nd nd nd | 1 of 9 (3.56) |
| EGDSYRYLYAN | GKWNRPS | SSRDSSGFQVF | nd nd nd | 1 of 9 (3.70) |
| EGDSLRYYYAN | GKNNRPS | GSRDSAGFQYF | 5.45 3.65 nd | 2 of 9 (4.10) |
| EGDSLRYAKAW | GKNNRPS | SSRDSSGFQVF | 3.25 3.07 3.94 | 4 of 9 (3.60) |
| QGDSLRYYYAN | GKNNRPS | RSRDSIGFQVF | nd 4.09 nd | 3 of 9 (4.16) |
| EGDSLRYYYAN | GKNVRPN | SSRDSLGFQVF | 2.95 2.84 2.11 | 3 of 9 (3.59) |
| EGDSLGPYWAN | GKNNRPS | SSRDSSGFQVF | 2.99 3.03 3.40 | 3 of 9 (4.29) |
| EGDSKRYYYAN | GKNNRPS | FSRDSSGFSVF | nd nd nd | 1 of 9 (3.91) |
| EGDSGRYYYAN | GKNLRPS | SSRDSSGFQVF | 3.00 5.04 nd | 2 of 9 (4.23) |
| EGDILRYYYAN | GKNNRPS | LSRDSSGFQMF | 3.38 3.34 4.28 | 6 of 9 (3.61) |
| IGDSLRYYYAN | GLNNRPS | SSRDSSTFQVF | 3.00 nd nd | 1 of 9 (4.29) |
| EGDSLRYYYAN | GKNYRPN | SSRDSSGFYVF | 3.80 3.48 3.73 | 4 of 9 (4.69) |
| EGDCLRYYYAN | GKNNRPS | DSRMSSGFQVF | 4.09 nd 3.97 | 4 of 9 (3.90) |
| ENDSLRYYYAN | GKNNQPS | SSRFSSGFQVF | 4.13 4.19 nd | 2 of 9 (3.82) |
| EGDSLRYYSAN | GKTNRPS | SSRDNSGFQVF | 2.51 2.21 2.49 | 1 of 9 (5.44) |
| EGDSLRYKYAN | GKNNRPS | TSRDSSGFQVD | 3.53 2.40 1.48 | 1 of 9 (2.59) |
| EGDSLRYYPAN | GKANRPS | SSRDSVGFQVF | 2.67 nd 3.86 | 4 of 9 (4.04) |
| EGDSLRYYYYN | GKNSRPS | SSRVSSGFQVF | 4.88 4.67 nd | 4 of 9 (4.34) |
| EGDSLRFYYAN | NKNNRPS | SSRDSQGFQVF | 3.00 2.92 3.48 | 3 of 9 (3.90) |
| EGNHLRYYYLN | GKNNRPS | SSRDSSGFQVF | 3.60 3.47 3.41 | 3 of 9 (3.86) |
| EGDSLRYYYAN | GKNNRPS | SSVDASGFQFF | 2.04 2.00 1.56 | 3 of 9 (3.59) |
| EGDSLRYYYAN | GKNNRPS | NSMDSSGFQVF | 2.50 2.33 2.94 | 2 of 9 (3.59) |
| EGDSLRYYYAN | GKNNEPS | SVRDSSGFQVF | 3.07 2.84 3.81 | 3 of 9 (4.01) |
| EWDSLRYYYAN | GKNNRPS | SSRDSPGFQVG | 5.60 nd 3.91 | 2 of 9 (4.28) |
| EGDSLRYYYAN | GKQGRPS | SSRDSSGFQEF | 2.93 2.93 2.46 | 4 of 9 (3.78) |
| ETDSLRYYYAN | GINNRPS | SSCDSSGFQVF | nd nd nd | 2 of 9 (3.08) |
| EADSLRYYYAN | GKNRRPS | SCRDSSGFQVF | 2.88 3.48 3.31 | 5 of 9 (4.03) |
| ETDSLDYYFAN | GKNNRPS | SSRDSSGFQVF | nd nd nd | 2 of 9 (3.70) |
| ESDSLRYYYAN | GKNIRPS | SVRDSSGFQVF | 2.12 2.18 1.87 | 1 of 9 (3.66) |
| EGDSLPYYHAT | GKNNRPS | SSRDSSGFQVF | nd 2.64 nd | 1 of 9 (3.62) |
| EGDSLRYYYAH | GKNNRPS | SPRDSSGKQVF | nd 3.90 4.59 | 3 of 9 (3.57) |
| EGDSLRYYYAN | GLNNRPV | SSRDSSGPQVF | 2.75 3.57 3.33 | 4 of 9 (3.88) |
| EGDSLRYMYAN | GKNNRDS | SSRTSSGFQVF | nd nd nd | 0 of 9 |
| EGDSLRYYYAN | GKNNRPS | SSWRSSGFQVF | 3.68 4.88 nd | 1 of 9 (3.97) |
| EGDSLRYYYAN | GKNNRPS | SSRDSWGPQVF | 4.95 nd 3.56 | 5 of 9 (3.78) |
| EGPSLRYYYAN | GKNNRPS | SSRWSSGFQVF | 2.40 2.37 1.38 | 5 of 9 (3.68) |
| EGDSLRYYYQH | GKNNRPS | SSNDSSGFQVF | 3.91 3.64 nd | 2 of 9 (4.77) |
| CGDSLRYYYAN | GKNDRPS | SSRDYSGFQVF | 2.33 2.16 2.16 | 0 of 9 |
| EGDPLRYYYAN | GKNNRPS | SSRDSSPFQVC | 3.81 3.07 2.83 | 3 of 9 (3.86) |
| EGDSLRYYYAN | GWNNRPS | SSRSSSGFQVC | 3.37 nd nd | 1 of 9 (3.33) |
| EGDSLRYTYAN | FKNNRPA | SSRDSSGFQVF | 3.52 3.80 4.28 | 2 of 9 (3.88) |
| EGDGLRYYYAN | GKNNRPS | SKRDSNGFQVF | 2.10 2.62 2.26 | 3 of 9 (3.36) |
| EGDSLRYYYAN | TKNNQNS | SSRDSSGFQVF | nd nd nd | 4 of 9 (4.21) |
| GDDSLRYYYAN | GKNNRPR | SSRDSSGFQVF | nd 3.47 2.92 | 0 of 9 |
| EGDSLRYYYAK | GKNNRPS | DSRDSSVFQVF | nd nd nd | 2 of 9 (2.98) |
| EGDSLRYWYAN | GKANRPS | SSRDSSGFQVF | 3.65 2.81 3.98 | 6 of 9 (4.19) |

7 of these entries, quoted again:

CDR-L1,CDR-L2,CDR-L3,log10 Kd (nM) by replicate,signal with controls
EGDSLRYYYYN,GKNSRPS,SSRVSSGFQVF,4.88 4.67 nd,4 of 9 (4.34)
EGDSLRYYSAN,GKTNRPS,SSRDNSGFQVF,2.51 2.21 2.49,1 of 9 (5.44)
EGDSLRYYYAN,GKNNRPS,SSVDASGFQFF,2.04 2.00 1.56,3 of 9 (3.59)
EGDSLRYYYAN,GKNYRPN,SSRDSSGFYVF,3.80 3.48 3.73,4 of 9 (4.69)
ETDSLRYYYAN,GINNRPS,SSCDSSGFQVF,nd nd nd,2 of 9 (3.08)
EGDSLRYYYAN,GKNNRPS,SSRDSWGPQVF,4.95 nd 3.56,5 of 9 (3.78)
EGDSLRYYYAH,GKNNRPS,SPRDSSGKQVF,nd 3.90 4.59,3 of 9 (3.57)